Test results published in US20240299576A1, “TARGETING CONJUGATES COMPRISING EFFECTOR MOLECULES AND USES THEREOF” (priority 2021, published 2024).

Experiments:
[1] = Stability of compounds of Formulae (1) and (2) in buffer; assay type: physicochemical
[2] = Stability of compounds of Formulae (1) and (2) in plasma; assay type: in vitro ADME; conditions: pH 7.4
HCT15-hPDL1 cells = assay type: cell-based, human; conditions: 5 days exposure; read-out: HCT15-hPDL1 cell IC50
Procedure: The cell line was named as HCT15-hPDL1.
The in vitro anti-tumor activity was determined by CellTiter-Glo® Luminescent Cell Viability Assay (Promega) according to the manufacturer's instructions. […] Untreated cells served as control. ADCs, antibodies, or payloads in 100 μL medium were added in duplicate at various concentrations with a 2-fold dilution series starting with concentrations of 1 uM, respectively. Cells were exposed to test articles for 5 days. Absorbance was measured at 450 nm by a microplate reader. The cell survival rate (%) was calculated using the following formula: sample/control×100%.

CathepsinB = CathepsinB (Homo sapiens, UniProt P07858); experiment: Digestion of the drug-linkers by CathepsinB; conditions: 125 nM enzyme, 62.5 μM drug-linker, pH 5.5, 37° C., 3 hours
[3] = alkaline conditions 10 minutes, then acidic conditions (pH 9→5)

| Substance | existing in the form of lactones in buffer ([1]; buffer, less affected by pH) | Stability in plasma [2] | in the form of lactones ([1]; acidic conditions (buffer pH 5)) | in the form of lactones [1, 3] | lactone-opening products [1, 3] | lactones in the form of ring opening ([1]; alkaline conditions (buffer pH 9)) | IC50 (HCT15-hPDL1 cells) | CathepsinB digestion (CathepsinB) |
| --- | --- | --- | --- | --- | --- | --- | --- | --- |
| Glycine3-amido-PEG8-VC-PAB-DMAE-α-hydroxy lactone linked SN38 [Compound of Formula (2)] | 98% | mainly in the form of lactones in the plasma, and ring-opening products were basically invisible |  |  |  |  |  |  |
| Glycine3-amido-PEG8-VC-PAB-DMAE-phenol linked SN38 [Compound of Formula (1)] |  | partially hydrolyzed in plasma, mainly in the form of lactone opening | 88% | 98% | 0.21% | 92% | > 300 nM | effectively digested |
